Measured values reported in US8859723 (AILERON THERAPEUTICS, dated 2014).

Protein sequences, listed by entry. Tags and fused reporters are not part of them. Residues count along the entry.
UniProt Q00987, 1-125 limits assumed: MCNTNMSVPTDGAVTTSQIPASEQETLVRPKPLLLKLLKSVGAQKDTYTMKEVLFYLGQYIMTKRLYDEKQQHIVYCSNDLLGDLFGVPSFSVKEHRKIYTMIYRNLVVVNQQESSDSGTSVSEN

How the values were obtained:
[1] = target: T1, hDM2 (In-house, 41 kD) (human, UniProt Q00987 1-125, limits assumed); test: fluorescence polarization, direct binding; hDM2 titrated against 10 nM FAM labeled peptide
T1 construct: Only 'In-house, 41 kD' is said of the protein in the assay; also called hMDM2
Experimental: (§1) The assay was performed according to the following general protocol: 1. Dilute hDM2 (In-house, 41 kD) into FP buffer (High salt buffer-200 mM Nacl, 5 mM CHAPS, pH 7.5) to make 10 µM working stock solution. 2. Add 30 µl of 10 µM of protein stock solution into A1 and B1 well of 96-well black HE microplate (Molecular Devices). 3. Fill in 30 µl of FP buffer into column A2 to A12, B2 to B12, C1 to C12, and D1 to D12. 4. 2 or 3 fold series dilution of protein stock from A1, B1 into A2, B2; A2, B2 to A3, B3; ... to reach the single digit nM concentration at the last dilution point. 5. Dilute 1 mM (in 100% DMSO) of FAM labeled linear peptide with DMSO to 100 µM (dilution 1:10). Then, dilute from 100 µM to 10 µM with water (dilution 1:10) and then dilute with FP buffer from 10 µM to 40 nM (dilution 1:250). This is the working solution which will be a 10 nM concentration in well (dilution 1:4). Keep the diluted FAM labeled peptide in the dark until use 6. Add 10 µl of 10 nM of FAM labeled peptide into each well and incubate, and read at different time points.

[2] = target: T2, hDMX (In-house, 40 kD) (human, UniProt O15151 1-120, limits assumed); test: fluorescence polarization, direct binding; hDMX titrated against 10 nM FAM labeled peptide
T2 construct: Only 'In-house, 40 kD' is said of the protein in the assay; also called HDM4
T2 sequence (looked up): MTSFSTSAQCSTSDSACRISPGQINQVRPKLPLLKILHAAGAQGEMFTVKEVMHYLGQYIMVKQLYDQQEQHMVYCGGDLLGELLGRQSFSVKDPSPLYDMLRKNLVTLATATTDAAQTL
Experimental: as §1, with “Dilute hDMX” for “Dilute hDM2”, “(In-house, 40” for “(In-house, 41”, “until use.” for “until use”

B1: 5-FAM-BaLTFEHYWAQLTS-NH2 (SEQ ID NO: 795) (peptide)
peptide: ALTFEHYWAQLTS
modifications: N-terminal 5-FAM label; 'Ba' residue after the label (abbreviation not defined in the filing); C-terminal amide (-NH2)
notes: Synthetic fluorescent tracer peptide; also called FAM labeled linear peptide; FAM labeled peptide
Binder B1 has a Kd [1] of roughly 13.4 nM and a Kd [2] of roughly 51 nM.
